Sfp inh: blocks B. subtilis Sfp PPTase activity. AID 1490. Q9F4F7. Biochemical Sfp PPTase activity, qHTS. hit rate 3.5% among 310,000. Potency, µM, for the others: max response, negative = inhibition, usual class: inhibitors; active = well fitted inhibition curve with a large enough effect; inconclusive = small, poorly fitted or top-dose-only effect, or another doubt; inactive = no such curve, though single readings can be large or run the other way;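 also: the enzyme is Sfp with the accession as filed and its product quenches rhodamine fluorescence; potency is read from the fitted curve at half-maximal effect; 0% = enzyme reaction without inhibitor and -100% = no enzyme wells; top concentration of the series not given in the record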
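Buffer: 50 mM Hepes-Na pH 7.6, 10 mM MgCl2, 0.01% Nonidet P-40, 0.01% BSA. Enzyme 15 nM, pre-exposed to compound 15 min; substrates then added and fluorescence change tracked over 30 min.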
JMJD2E inh: JMJD2E (human) inhibition | B2RXH2 | JMJD2E catalytic domain, FDH-coupled NADH fluorescence (FDH is formaldehyde dehydrogenase) | Potency, µM (highest dose often 57.1 µM), without a hit: top-dose activity change, negative = inhibition, usual class: inhibitors | 1.6% of 230,000 active | AID 2147; active = well fitted inhibition curve with a large enough effect, not every such curve was filed as active; inconclusive = small, poorly fitted or top-dose-only effect, or another doubt; inactive = no such curve, though single readings can be large or run the other way;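 note: potency is the fitted concentration of half-maximal effect; 0% = wells with enzyme and -100% = buffer wells without enzyme; nearly all actives have a fitted effect of over 50% in size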
ALDH1A1 inh: blocks purified human ALDH1A1 activity. P00352. Potency, µM (doses to about 75.3 µM), inactives show at the top dose activity, negative = inhibition, most hits filed as inhibitors. Purified ALDH1A1, NADH fluorescence, propionaldehyde substrate. 7.3% of 220,000 active; active = well fitted inhibition curve with a large enough effect, not every such curve was filed as active; inconclusive = small, poorly fitted or top-dose-only effect, or another doubt; inactive = no such curve, though single readings can be large or run the other way;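 note: potency is the fitted concentration of half-maximal effect; plate controls were no enzyme wells and a reference inhibitor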
G9a block: blocks human histone lysine methyltransferase G9a; Q96KQ7; G9a H3K9 monomethylation, AlphaScreen, 2 h; Potency, µM (series often up to 102 µM), inactives show top-dose activity, negative = inhibition, hits mostly inhibitors; 8.8% of 350,000 active; note: potency is the fitted concentration of half-maximal effect; % is set by controls: 0 for no effect and ±100 for the full control effect; nearly all actives have a fitted effect of over 75% in size
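Methyltransferase reactions run at room temperature for 2 h (20 nM enzyme, 500 nM biotin-H3K9 peptide, 20 uM SAM) after a 15 min compound preincubation; product detected by AlphaScreen beads and anti-H3K9me1 antibody.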
miR-21 reporter: raises the signal of a miR-21 reporter | HeLa miR-21 FLuc reporter, luciferase, 48 h | Potency, µM (doses to about 38.3 µM), without a hit: at the top dose reporter change, positive = more light | 340,000 tested, under 10 active | AID 2288; active = well fitted rising curve with a large enough effect; inconclusive = small, poorly fitted or top-dose-only effect; inactive = no such curve, though single readings can be large or run the other way;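 note: % of control where 0% means no effect; miR-21 action dims this reporter so a rising signal means less miR-21 action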
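HeLa cells stably expressing CMV-driven firefly luciferase with a downstream miR-21 binding sequence, endogenously expressing miR-21, were treated with titrations (up to about 40uM final) for 48 hours at 37 degree Celsius. Luciferase luminescence was read after lysis.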
LMNA splice mod: LMNA splicing modulation; HeLa LMNA splicing GFP/RFP minigene ratio, 48 h; Potency, µM (titrated, usually from 46.1 µM), without a hit: top-dose ratio change, negative = inhibition, hits mostly inhibitors; 0.01% of 200,000 active; AID 1487; active = well fitted inhibition curve with a large enough effect in the signal ratio, with a control signal flat, not every such curve was filed as active; inconclusive = small, poorly fitted or top-dose-only effect, or effect the other way, or a change in a side signal; the % refers to the signal ratio; note: potency is the fitted concentration of half-maximal effect; % is set by controls: 0 for no effect and ±100 for the full control effect
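S3 HeLa cells stably expressing lamin A-EGFP splicing minigene plus DsRed2, 600 cells/well, 48 h compound exposure at 37C. Laser-scanning cytometry; analysed as GFP (500-530 nm)/RFP (575-640 nm) total intensity ratio; 0.5% DMSO vehicle.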
Numbers without * were called inactive; ? = inconclusive; . = no result given; [ ] = dose if it differs, or a comment. Only some compounds are listed: those with a hit (about 13% of all), similar ones and a draw of the others. Unless noted, calls come from the whole dose curve; as a rule, active = well fitted curve in the direction sought with a large enough effect; inconclusive = small, poorly fitted or top-dose-only effect, or another doubt; inactive = no such curve, though single readings can be large; an effect the other way counts as inactive or inconclusive.

compound	Sfp inh	JMJD2E inh	ALDH1A1 inh	G9a block	miR-21 reporter	LMNA splice mod
COc1cccc(CCc2nnc(N)s2)c1	-16%	.	.	79µM*	-14%	.
Cc1ccn2c(NC3CCCC3)c(-c3cccs3)nc2c1	-19%	?	?	45µM*	-32%	23%[9.22 µM]
Cc1cccc(Nc2c(-c3ccsc3)nc3nc(C)cc(C)n23)c1	.	.	.	-25%[59 µM]	1%	.
Cc1ccccc1Nc1c(-c2ccc(Cl)s2)nc2c(C)cccn12	.	.	.	-57%[59 µM]	-14%	.
Cc1ccn2c(Nc3c(C)cccc3C)c(-c3ccsc3)nc2c1	.	.	.	10µM*	8%	.
Cc1ccn2c(Nc3c(C)cccc3C)c(-c3ccc(Cl)s3)nc2c1	.	.	.	7.1µM*	13%	.
Cc1ccc(N2CC(NC(=O)c3ccccc3Br)CC2=O)cc1 (stereo unspecified)	.	.	.	3%[59 µM]	-1%	13%[46 µM]
CC(/C=N/n1c(-c2ccc(C)cc2)n[nH]c1=S)=C\c1ccco1	50µM*	-1%	?	1.3µM*	-4%	?
CC(/C=N/n1c(-c2ccco2)n[nH]c1=S)=C\c1ccco1	45µM*	?	32µM*	1.4µM*	-6%	-12%
CC(/C=N/n1c(-c2ccccc2)n[nH]c1=S)=C\c1ccco1	?	-4%	?	2.2µM*	-10%	-12%
CC(/C=N/n1c(-c2ccncc2)n[nH]c1=S)=C\c1ccco1	-27%	?	.	.	17%	.
O=c1cc(-c2ccccc2)c2ccc3c(c2o1)CN(Cc1cccc(Cl)c1)CO3	.	.	.	2%[59 µM]	-16%	.
COc1cc(/C=C/C(=O)Nc2nnc(CC(C)(C)C)s2)cc(OC)c1OC	45µM*	?	?	2.2µM*	-4%	-10%
CCCNc1nc(C)nc2c1cnn2CCc1ccccc1	16%	-6%	18µM*	-2%	-60%	12%
Cc1ccc(-c2nnc(Nc3ccc(O)cc3)c3ccccc23)cc1S(=O)(=O)NCC1CCCO1 (stereo unspecified)	.	.	.	-3%[59 µM]	16%	.
O=C1C2C3C=CC(C2C(=O)N1c1cccc(O)c1)C1C2C(=O)N(c4cccc(O)c4)C(=O)C2C31 (stereo unspecified)	8%	-1%	1.4µM*	?	0%	.
Cc1cc(C(F)F)n2nc(C(=O)Nc3sc4c(c3C#N)CCC(C)C4)nc2n1 (stereo unspecified)	5%	2%	?	-15%[59 µM]	-1%	2%
Cc1cc(C(F)F)n2nc(C(=O)Nc3sc4c(c3C(N)=O)CCC4)nc2n1	-6%	1%	16µM*	40µM*	-16%	?
COC(=O)c1c(NC(=O)c2nc3nc(C)cc(C(F)F)n3n2)sc2c1CCC2	-12%	5%	13µM*	-29%	-4%	-4%
Cc1ccc(CSCC(=O)N(C)CC(=O)Nc2ccccc2C(F)(F)F)cc1	.	.	.	0%[0.501 µM]	.	.

In another format: 4 of the compounds above.
Every second line gives: Sfp inh | JMJD2E inh | ALDH1A1 inh | G9a block | miR-21 reporter | LMNA splice mod
CC(/C=N/n1c(-c2ccccc2)n[nH]c1=S)=C\c1ccco1
    ? | -4% | ? | 2.2µM* | -10% | -12%
CC(/C=N/n1c(-c2ccncc2)n[nH]c1=S)=C\c1ccco1
    -27% | ? | . | . | 17% | .
O=c1cc(-c2ccccc2)c2ccc3c(c2o1)CN(Cc1cccc(Cl)c1)CO3
    . | . | . | 2%[59 µM] | -16% | .
COc1cc(/C=C/C(=O)Nc2nnc(CC(C)(C)C)s2)cc(OC)c1OC
    45µM* | ? | ? | 2.2µM* | -4% | -10%

Later entries
compound	Sfp inh	JMJD2E inh	ALDH1A1 inh	G9a block	miR-21 reporter	LMNA splice mod
COC(=O)c1scc(-c2ccc(C)cc2)c1S(=O)(=O)N1CCN(c2ccccc2F)CC1	.	.	.	-8%[59 µM]	1%	-3%[46 µM]
CCOc1ccc(C2C(C(=O)c3ccc(C)o3)=C(O)C(=O)N2c2nc(C)c(C(=O)OC)s2)cc1 (stereo unspecified)	50µM*	.	.	10µM*	-51%	.
CCOC(=O)c1sc(N2C(=O)C(O)=C(C(=O)c3ccco3)C2c2ccc(C)o2)nc1C (stereo unspecified)	40µM*	.	.	11µM*	-15%	.
COc1ccc(C2C(C(C)=O)=C(O)C(=O)N2c2nc3ccccc3s2)cc1OC (stereo unspecified)	-18%	-11%	-12%	50µM*	-33%	-3%[46 µM]
CCOC(=O)c1sc(N2C(=O)C(O)=C(C(=O)c3ccc(C)o3)C2c2cccc([N+](=O)[O-])c2)nc1C (stereo unspecified)	?	.	.	45µM*	-10%	.
COc1ccc2c(C)c(CCC(=O)NCc3ccc(C)cc3)c(=O)oc2c1	.	.	.	-1%[59 µM]	-9%	.
COc1cc(C(=O)Nc2nc3c(s2)Cc2c(Br)ccc(OC)c2-3)cc(OC)c1OC	.	.	.	0%[59 µM]	2%	.
